Measurements taken from patent US20250186608A1, “NANODIAMONDS AS DELIVERY PLATFORM FOR OXIME ANTIDOTES TO CENTRAL NERVOUS SYSTEM IN ORGANOPHOSPHATE POISONING” (published 2025).

Test system: MDCK cell membrane
Experiment: MDCK assay double-well experiment: permeability across in vitro BBB model
Conditions: reference compounds, concentration not given

Row | Compound | CNS (+/−) | Experimental estimation of BBB Penetration Papp ± SD
1 | 7-methoxytacrine | CNS+ | 17.19 ± 3.56 ×10^−6 cm s^−1
2 | O/N=C/c1cc[n+](COC[n+]2ccc(/C=N/O)cc2)cc1 | CNS− | –
